# Source: US20100055065A1, “AGENT FOR INHIBITING PRODUCTION OF HEPATITIS C VIRUS AND ITS USE” (MIYAZAKI PREFECTURAL INDUSTRIAL SUPPORT FOUNDATION, priority 2008, published 2010)
# Test system: HCV replicon cells (human hepatoma Huh-7)
# Experiment: Cytotoxicity test (Cell Counting Kit-8)
# Assay type: cell-based
# Settings: Table 1
# Protocol: The cytotoxicity of the samples was measured by Cell Counting Kit-8 (CCK-8; Dojindo Molecular Technologies) according to the manufacture's instructions. Briefly, 10 μl/a well of CCK-8 reagent were added to the HCV replicon cells cultured in a 96-well plate and then incubated at 37° C. for 60 min. The absorbance of each well was measured at 450 nm with a reference wavelength at 650 nm using an Emax Precision microplate reader (Molecular Devices Inc.). Cell viability was calculated as relative index of control cells and effects of samples and was expressed as the concentration of samples required for 50% cytotoxicity of the cells (CC50).
substance,measurement,value
Catechin,Cytotoxicity CC50,100.4 µg/mL
